According to patent US9326972B2, “Use of phenylmethimazoles, methimazole derivatives, and tautomeric cyclic thiones for the treatment of autoimmune/inflammatory diseases associated with toll-like receptor overexpression” (Ohio University, priority 2004, dated 2016):
Where two headings read alike, the source gives them in different places.

Test system: TLR3, MHC Class I, PKR, IP-10 mRNA in FRTL-5 cells
Conditions: FRTL-5, 100 U/ml IFN

B1: IFN-β: Type I IFN, from Biosource International (protein, UniProt P01574 22-187, looked up)
Interferon beta: MSYNLLGFLQRSSNFQCQKLLWQLNGRLEYCLKDRMNFDIPEEIKQLQQFQKEDAALTIYEMLQNIFAIFRQDSSSTGWNETIVENLLANVYHQINHLKTVLEEKLEKEDFTRGKLMSSLHLKRYYGRILHYLKAKEYSHCAWTIVRVEILRNFYFINRLTGYLRN
Question: B1 was tested. Which “GAPDH mRNA, % of Control at 0 Time (±15%)” value (shortened to “GAPDH mRNA, % of Control”) (1 hr) did it give?
Answer: Its value is 100 % of Control at 0 Time.

Question: And the “IP-10 mRNA, % of Control at 0 Time (±15%)” value (from here on “IP-10 mRNA, % of Control”) (1 hr)?
Answer: Its value is 100 % of Control at 0 Time.

Question: What about the “MHC Class I mRNA, % of Control at 0 Time (±15%)” value (“MHC Class I mRNA, % of Control” for short) (1 hr) of the same molecule?
Answer: The value was 100 % of Control at 0 Time.

Question: What about the “PKR mRNA, % of Control at 0 Time (±15%)” value (1 hr) of the same molecule?
Answer: Its value is 100 % of Control at 0 Time.

Question: And the “TLR3 mRNA, % of Control at 0 Time (±15%)” value (1 hr)?
Answer: The value was 100 % of Control at 0 Time.

Question: And the “GAPDH mRNA, % of Control” value (3 hr)?
Answer: Its value is 100 % of Control at 0 Time.

Question: What about the “IP-10 mRNA, % of Control” value (3 hr) of the same molecule?
Answer: The value was 580 % of Control at 0 Time.

Question: And the “MHC Class I mRNA, % of Control” value (3 hr)?
Answer: The value was 300 % of Control at 0 Time.

Question: What about the “PKR mRNA, % of Control at 0 Time (±15%)” value (3 hr) of the same molecule?
Answer: Its value is 500 % of Control at 0 Time.

Question: And the “TLR3 mRNA, % of Control at 0 Time (±15%)” value (3 hr)?
Answer: The value was 550 % of Control at 0 Time.

Question: What about the “GAPDH mRNA, % of Control” value (6 hr) of the same molecule?
Answer: The value was 100 % of Control at 0 Time.

Question: What about the “IP-10 mRNA, % of Control” value (6 hr) of the same molecule?
Answer: Its value is 300 % of Control at 0 Time.

Question: And the “MHC Class I mRNA, % of Control” value (6 hr)?
Answer: The value was 400 % of Control at 0 Time.

Question: What about the “PKR mRNA, % of Control at 0 Time (±15%)” value (6 hr) of the same molecule?
Answer: Its value is 450 % of Control at 0 Time.

Question: What about the “TLR3 mRNA, % of Control at 0 Time (±15%)” value (6 hr) of the same molecule?
Answer: The value was 450 % of Control at 0 Time.

Question: What about the “GAPDH mRNA, % of Control” value (12 hr) of the same molecule?
Answer: Its value is 100 % of Control at 0 Time.

Question: And the “IP-10 mRNA, % of Control” value (12 hr)?
Answer: The value was 200 % of Control at 0 Time.

Question: And the “MHC Class I mRNA, % of Control” value (12 hr)?
Answer: Its value is 425 % of Control at 0 Time.

Question: What about the “PKR mRNA, % of Control at 0 Time (±15%)” value (12 hr) of the same molecule?
Answer: Its value is 450 % of Control at 0 Time.

Question: What about the “TLR3 mRNA, % of Control at 0 Time (±15%)” value (12 hr) of the same molecule?
Answer: The value was 250 % of Control at 0 Time.
